SMILES strings stand for the structures. pIC50: −log10 of the molar value. Counter-ions that a name gives are not always drawn.

The chains behind the UniProt entries cited, without tags or fusion partners.
UniProt Q00535, whole entry: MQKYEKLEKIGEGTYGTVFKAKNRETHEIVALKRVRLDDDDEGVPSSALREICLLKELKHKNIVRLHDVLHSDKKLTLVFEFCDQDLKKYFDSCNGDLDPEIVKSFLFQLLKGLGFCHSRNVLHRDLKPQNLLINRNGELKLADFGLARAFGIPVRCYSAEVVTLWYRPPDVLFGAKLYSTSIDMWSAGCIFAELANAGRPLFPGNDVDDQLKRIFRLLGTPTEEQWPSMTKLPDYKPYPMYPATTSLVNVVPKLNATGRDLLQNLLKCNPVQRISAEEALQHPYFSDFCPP

In one assay the target is CDK5/p25 (Homo sapiens, UniProt Q00535). The assay is described as follows: CDK5/p25 kinase assay (histone H1, 15 μM ATP). It counts as biochemical. The following applies: 30° C., 30 min.
Another assay addresses CDK1/cyclin B. The assay is described as follows: CDK1/cyclin B kinase assay (histone H1, 15 μM ATP). It counts as biochemical, starfish (Marthasterias glacialis). The note with it: 30° C., 30 min.
The target of the next assay is GSK-3α/β. The assay is described as follows: GSK-3α/β kinase assay (GS-1 substrate, 15 μM ATP). It counts as biochemical, porcine. The note with it: 30° C., 30 min, read-out: GSK3 IC50.

On CDK5/p25, `CN(C)CCO/N=C1/C(=C2/C(=O)Nc3cc(Br)ccc32)Nc2ccccc21` [Cpd 16, (2′Z-3′)-6-Bromoindirubin-3′-[O-(2-dimethylaminoethyl)oxime]Hydrochloride] had a pIC50 of 7.28.

Take `CN(C)CCO/N=C1/C(=C2/C(=O)Nc3cc(Br)ccc32)Nc2ccccc21` [Cpd 5, (2′Z-3′E)-6-Bromoindirubin-3′-[O-(2-dimethylaminoethyl)-oxime]]: the pIC50 at CDK1/cyclin B is 6.31.

`O=C1Nc2cc(Br)ccc2/C1=C1/Nc2ccccc2/C1=N\OCCN1CCN(CCO)CC1` [Cpd 24]: the pIC50 on CDK1/cyclin B was 6.40. Still for that read-out and setting: under `O=C1Nc2cc(Br)ccc2/C1=C1/Nc2ccccc2/C1=N\OCCN(CCO)CCO` [Cpd 9] stands 6.22; under `O=C1Nc2cc(Br)ccc2/C1=C1/Nc2ccccc2/C1=N\OCCN(CCO)CCO` [Cpd 20], 6.00. As to `O=C1Nc2cc(Br)ccc2/C1=C1/Nc2ccccc2/C1=N\OCCN1CCNCC1` [Cpd 11, (2′Z-3′E)-6-Bromoindirubin-3′-[O-(2-piperazine-1-ylethyl)oxime]], the pIC50 at GSK-3α/β was 8.48.

Take `O=C1Nc2cc(Br)ccc2/C1=C1/Nc2ccccc2/C1=N\OCCN1CCN(CCO)CC1` [Cpd 13]: the pIC50 against CDK1/cyclin B is 6.22. Turning to `O=C1Nc2cc(Br)ccc2/C1=C1/Nc2ccccc2/C1=N\OCCN1CCNCC1` [Cpd 22, (2′Z-3′E)-6-Bromoindirubin-3′-[O-(2-piperazine-1-ylethyl)oxime]Dihydrochloride], the pIC50 on GSK-3α/β is 8.89.

In general, pIC50 refers to the IC50 on a negative log10 scale, so that one unit is a factor of ten.

Values taken from patent US8829203B2, “3′,6-substituted indirubins and their biological applications” (Centre National de la Recherche Scientifique (CNRS), priority 2008, dated 2014).
